# Measurements as given in paper PMC6273584, “Synthesis of Thiazolo[5,4-f]quinazolin-9(8H)-ones as Multi-Target Directed Ligands of Ser/Thr Kinases” (Molecules, 2016).
# Protein sequences, listed by entry. Tags and fused reporters are not part of them.
# UniProt Q00535, whole entry: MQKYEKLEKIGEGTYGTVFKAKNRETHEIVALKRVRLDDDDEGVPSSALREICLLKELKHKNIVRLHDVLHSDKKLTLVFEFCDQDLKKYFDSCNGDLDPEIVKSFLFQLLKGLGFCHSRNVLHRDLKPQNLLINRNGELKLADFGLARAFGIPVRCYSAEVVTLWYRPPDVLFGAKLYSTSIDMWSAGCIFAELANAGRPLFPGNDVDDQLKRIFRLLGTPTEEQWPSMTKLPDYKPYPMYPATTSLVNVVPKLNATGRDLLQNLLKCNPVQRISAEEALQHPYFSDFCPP
# How the values were obtained:
# GSK-3α/β = test: In vitro kinase assay GSK-3α/β, GS-1 peptide substrate; type: biochemical, Porcine; conditions: 15 μM ATP, 30 min, 30 °C, triplicate; <50% inhibition at 10 μM = IC50 >10 μM
# CDK5/p25 = target: T1, CDK5/p25 (Homo sapiens, UniProt Q00535); test: In vitro kinase assay CDK5/p25, [γ-33P]ATP, histone H1 substrate; type: biochemical
# T1 construct: made in house
IC50 (GSK-3α/β) [nM],SMILES,IC50 (CDK5/p25) [nM]
170,"CCOC(=N)c1nc2ccc3ncn(C(C)C)c(=O)c3c2s1 [Compound 14d, Ethyl 8-isopropyl-9-oxo-8,9-dihydrothiazolo[5,4-f]quinazoline-2-carboximidoate]",
,"COc1ccc2c(c1)[nH]c1c(C)nccc12 [Harmine, reference compound]",> 10000
